US12168086B2, “Hemostatic devices and methods of use” (priority 2016, dated 2024)

Test system: blood clotting
Settings: higher amounts of TXA (1.6 mg TXA vs 200 mg of TXA) in the presence of TYRX

`NC[C@H]1CC[C@H](C(=O)O)CC1` [tranexamic acid] was tested, and the Clotting time was “increased”.
